Columns and labels:
[1] = test system: Ishikawa; assay: Cytotoxicity in human Ishikawa cells assessed as inhibition of cell growth incubated for 48 hrs by MTT assay; assay type: functional, cell-based
[2] = test system: MCF7; assay: Cytotoxicity in human MCF7 cells assessed as inhibition of cell growth incubated for 48 hrs by MTT assay; assay type: functional, cell-based

| SMILES | growth inhibition (GI) [1] | growth inhibition (GI) [2] |
| --- | --- | --- |
| COc1ccc(-c2c(Oc3ccc(OCCN4CCCCC4)cc3)c3ccc(OC)cc3oc2=O)cc1 | Dose-dependent effect | – |
| COc1ccc2c(Oc3ccc(OCCN4CCCCC4)cc3)c(-c3ccc(F)cc3)c(=O)oc2c1 | Dose-dependent effect | – |
| O=c1oc2cc(O)ccc2c(Oc2ccc(OCCN3CCCCC3)cc2)c1-c1ccc(O)cc1 | Dose-dependent effect | – |
| O=c1oc2cc(O)ccc2c(Oc2ccc(OCCN3CCCCC3)cc2)c1-c1ccc(F)cc1 | Dose-dependent effect | – |
| O=c1oc2ccccc2c(Nc2ccc(OCCN3CCCCC3)cc2)c1-c1ccc(F)cc1 | – | Dose-dependent effect |
| COc1ccc2c(Nc3ccc(OCCN4CCCCC4)cc3)c(-c3ccc(F)cc3)c(=O)oc2c1 | – | Dose-dependent effect |
| O=c1oc2cc(O)ccc2c(Nc2ccc(OCCN3CCCCC3)cc2)c1-c1ccc(O)cc1 | – | Dose-dependent effect |
| O=c1oc2cc(O)ccc2c(Nc2ccc(OCCN3CCCCC3)cc2)c1-c1ccc(F)cc1 | – | Dose-dependent effect |
